Data published in US4743541A, “Luminescent substrate preparation and its use in specific binding assays” (priority 1985, dated 1988).
“Also recorded” adds a separate entry of the source.

Biological target: T1, horseradish peroxidase (HRP) (Armoracia rusticana, UniProt P00433)
T1 sequence (P00433 31-353): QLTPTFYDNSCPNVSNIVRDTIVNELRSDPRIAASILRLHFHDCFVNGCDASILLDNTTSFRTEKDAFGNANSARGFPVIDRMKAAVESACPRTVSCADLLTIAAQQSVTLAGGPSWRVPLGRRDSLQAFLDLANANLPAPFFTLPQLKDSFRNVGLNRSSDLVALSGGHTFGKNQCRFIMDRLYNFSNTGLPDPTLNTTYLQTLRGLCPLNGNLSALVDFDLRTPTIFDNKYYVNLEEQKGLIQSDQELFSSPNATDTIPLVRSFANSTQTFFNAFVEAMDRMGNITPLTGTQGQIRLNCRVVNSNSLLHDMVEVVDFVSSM
Test: Standardized test procedure for measuring luminol light output (HRP-catalyzed luminol/H2O2 reaction)
Type: biochemical
Conditions: relative to untreated commercial luminol; listed as luminol preparation
Description: A standardized test procedure for measuring luminol light output has been established. To 0.5 ml of 50 mM borate buffer, pH 9.4, are added 0.5 ml of 40 mM luminol in 45 mM NaOH, pH 11.0; 0.5 ml of 4 mM hydrogen peroxide in 0.01M phosphate buffered saline (PBS), pH 7.0; 0.4 ml of deionized water; and 0.1 ml of 200 mU/ml horseradish peroxidase (HRP) to yield a final 2.0 ml volume containing; 10 mM luminol; 1 mM H2 O2; 12.5 mM borate buffer, pH 9.4; and 20 mU HRP in an aqueous solution having a final pH of 9.4. The enzyme HRP is added last, the solution mixed and relative intensity readings taken on an Ames Fluorocolorimeter (Miles Labs, Inc., Elkhart, IN) at various time points from 1 minute to 2 hours.
The following table, Table I, illustrates the light output for luminol prepared by repeating the treatment procedure one to four times, compared to untreated luminol. Increasing the number of treatment sequences performed results in a continuing increase in the unit light intensity output of the activated luminol when tested in the standardized testing procedure. […] With this information, it is possible for the user of luminol to begin the recording of the reaction at any time during which the light intensity remains constant.

Nc1cccc2c(=O)[nH][nH]c(=O)c12 [Activated Luminol]
Unit light output compared with commercially available, untreated luminol: about at least a factor of ten; also recorded: approximately ten times greater; also recorded: substantially greater
